Amino acid sequences for entries named in this document (tags omitted).
UniProt P33261, whole entry: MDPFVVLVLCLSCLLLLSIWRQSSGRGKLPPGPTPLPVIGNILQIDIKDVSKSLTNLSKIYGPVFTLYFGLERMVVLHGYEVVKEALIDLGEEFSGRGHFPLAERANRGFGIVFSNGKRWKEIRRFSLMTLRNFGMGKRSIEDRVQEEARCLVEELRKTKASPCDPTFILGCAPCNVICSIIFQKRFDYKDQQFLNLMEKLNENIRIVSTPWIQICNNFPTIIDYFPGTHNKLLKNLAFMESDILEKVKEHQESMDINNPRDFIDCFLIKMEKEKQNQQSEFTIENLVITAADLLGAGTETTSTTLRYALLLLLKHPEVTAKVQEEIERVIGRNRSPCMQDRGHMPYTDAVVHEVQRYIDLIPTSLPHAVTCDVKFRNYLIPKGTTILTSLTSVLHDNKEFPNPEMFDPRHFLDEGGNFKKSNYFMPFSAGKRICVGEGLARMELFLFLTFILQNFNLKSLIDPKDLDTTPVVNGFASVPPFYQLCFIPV
UniProt P08684, whole entry: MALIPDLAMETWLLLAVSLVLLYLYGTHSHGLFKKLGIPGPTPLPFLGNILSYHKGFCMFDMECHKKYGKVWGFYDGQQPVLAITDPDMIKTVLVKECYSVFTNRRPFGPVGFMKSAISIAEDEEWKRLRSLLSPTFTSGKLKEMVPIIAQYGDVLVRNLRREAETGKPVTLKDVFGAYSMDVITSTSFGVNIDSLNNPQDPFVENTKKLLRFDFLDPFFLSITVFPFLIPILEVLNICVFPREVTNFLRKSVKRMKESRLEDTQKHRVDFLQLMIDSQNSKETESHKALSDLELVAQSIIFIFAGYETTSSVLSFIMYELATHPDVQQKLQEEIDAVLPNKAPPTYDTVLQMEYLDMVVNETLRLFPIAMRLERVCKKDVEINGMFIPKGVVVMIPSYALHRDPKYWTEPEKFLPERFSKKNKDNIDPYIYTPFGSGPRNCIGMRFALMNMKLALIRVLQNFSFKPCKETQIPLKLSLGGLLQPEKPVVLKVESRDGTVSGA
UniProt P0DMS8, whole entry: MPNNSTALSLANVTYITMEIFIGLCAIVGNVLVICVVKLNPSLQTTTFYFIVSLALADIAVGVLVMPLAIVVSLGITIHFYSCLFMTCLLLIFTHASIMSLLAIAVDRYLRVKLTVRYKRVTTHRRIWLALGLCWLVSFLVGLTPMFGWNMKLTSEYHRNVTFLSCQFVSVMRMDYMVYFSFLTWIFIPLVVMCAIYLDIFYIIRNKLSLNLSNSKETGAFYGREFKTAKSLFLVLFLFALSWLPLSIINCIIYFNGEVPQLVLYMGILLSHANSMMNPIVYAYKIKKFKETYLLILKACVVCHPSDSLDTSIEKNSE

According to patent US8952020B2, “Optically active pyrazolylaminoquinazoline, and pharmaceutical compositions and methods of use thereof” (Ambit Biosciences Corp., priority 2010, dated 2015):

Tests used:
[1] = target: CYP2C19 (Homo sapiens, UniProt P33261); assay: CYP450 inhibition in human liver microsomes
[2] = target: CYP3A4 (Homo sapiens, UniProt P08684); assay: CYP450 inhibition in human liver microsomes
[3] = target: T1, human adenosine A3 receptor (Homo sapiens, UniProt P0DMS8); assay: Adenosine A3 receptor radioligand binding assay ([125I] AB-MECA); details: 0.5 nM [125I] AB-MECA, CHO-K1 cells
T1 construct: expressed in transfected cells; host or cells: CHO-K1

Compound | IC50 [1] | IC50 [2] | IC50 [3]
Cc1cc(Nc2nc(C(O)c3ccc(F)cc3)nc3ccccc23)n[nH]1 (racemic) [Racemate] | 14.7 µM | 10.9 µM | 
Cc1cc(Nc2nc([C@H](O)c3ccc(F)cc3)nc3ccccc23)n[nH]1 [(R)(−)] | 11.8 µM | 14.8 µM | 0.028 µM
Cc1cc(Nc2nc([C@@H](O)c3ccc(F)cc3)nc3ccccc23)n[nH]1 [(S)(+)] | 15.9 µM | 10.5 µM | 
